A selection: hits, their analogues and other compounds. The true share with any hit is near 0.92%.
RXFP1 antag = blocks the human relaxin receptor RXFP1; Q9HBX9; HEK293-RXFP1, relaxin-stimulated cAMP HTRF, 30 min; stronger effect = lower value; activity change, negative = inhibition, % at 57.5 µM; hit rate 0.59% among 350,000;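 active = activity change of -60% or lower, but not beyond a set lower limit; inconclusive = change between -60% and -40%, or beyond the set limit; inactive = change above -40%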; also: % is scaled to controls: 0 for no effect and ±100 for the full control effect
KinaseGlo FLuc = counter-screen: inhibitors of Kinase-Glo firefly luciferase; Q27757; Kinase-Glo luciferase, ATP luminescence, 8 min; Potency, µM (titrated, usually from 38.3 µM), without a hit: at the top dose activity change, negative = inhibition, most hits filed as inhibitors; hit rate 0.28% among 200,000; AID 1379; also: potency is read from the fitted curve at half-maximal effect; % is scaled to controls: 0 for no effect and ±100 for the full control effect; nearly all actives have a fitted effect of over 60% in size
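Inhibition of Kinase-Glo luciferase light generation was assessed at 10 uM ATP in pH 7.2 imidazole buffer, with luminescence measured after eight minutes at ambient temperature.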
miR-21 FLuc = miR-21 reporter, rising signal | HeLa miR-21 FLuc reporter, luciferase, 48 h | Potency, µM (top dose mostly 38.3 µM), inactives show at the highest dose reporter change, positive = more light | 340,000 tested, under 10 active | AID 2288; active = well fitted rising curve with a large enough effect; inconclusive = small, poorly fitted or top-dose-only effect; inactive = no such curve, though single readings can be large or run the other way;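 note: % of control where 0% means no effect; miR-21 action dims this reporter so a rising signal means less miR-21 action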
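HeLa cells endogenously expressing miR-21, stably carrying CMV-driven firefly luciferase with a downstream miR-21 binding site, 2000 cells/well. Titrations up to approximately 40 uM, 48 hours; luciferase luminescence read.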
PKM2 act = PKM2 (human) enzyme activation; P14618; purified PKM2, Kinase-Glo ATP luminescence, activation; response scale: 0% is enzyme alone, no compound; Potency, µM (series often up to 57.5 µM), inactives show top-dose activation, most hits filed as activators; AID 1631; hit rate 0.34% among 260,000; also: potency is read from the fitted curve at half-maximal effect; % is scaled to controls: 0 for no effect and ±100 for the full control effect; nearly all actives have a fitted effect of over 55% in size
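Purified hPK-M2 (>95%) run at intermediate activity with 0.1 mM ADP and 0.5 mM PEP in 50 mM imidazole pH 7.2, KCl, MgCl2; 1 h room temperature. ATP formed read by Kinase-Glo luminescence; normalized to uninhibited and no-enzyme controls.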
GALK inhibitor = galactokinase (human) inhibition; P51570; Purified GALK, Kinase-Glo residual ATP luminescence; Potency, µM (highest dose often 57.5 µM), for the others: top-dose activity change, negative = inhibition, most hits filed as inhibitors; hit rate 0.007% among 270,000; also: potency is read from the fitted curve at half-maximal effect; % is scaled to controls: 0 for no effect and ±100 for the full control effect
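ATP-depletion format; final 35 uM ATP, 100 uM D-galactose, 5 nM enzyme; pH 8.0 HEPES/Mg2+ buffer; 60 min RT; luminescence read 10 min after detection reagent.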
RXFP1 agonist = activates the human relaxin receptor RXFP1; Q9HBX9; HEK293T-RXFP1 cAMP TR-FRET, 30 min; response scale: percent of porcine relaxin response, buffer zero; Potency, µM (series often up to 57.5 µM), without a hit: top-dose activation, hits mostly activators; hit rate 0.3% among 370,000; AID 2676; also: potency is read from the fitted curve at half-maximal effect; % is scaled to controls: 0 for no effect and ±100 for the full control effect; nearly all actives have a fitted effect of over 60% in size
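Agonist response is measured as cAMP accumulation in an RXFP1-transfected HEK293T line under PDE4 inhibition. Values are scaled between buffer-only and 29 nM porcine relaxin, and EC50s come from standard Hill equation fits.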
Active calls of the source: *; ! = a repeat was not active; [ ] = remark or other dose. Unless noted, calls follow the shape of the dose curve; as a rule, active = well fitted curve in the direction sought with a large enough effect; inconclusive = small, poorly fitted or top-dose-only effect, or another doubt; inactive = no such curve, though single readings can be large; an effect the other way counts as inactive or inconclusive.

For CCCCc1ccc(NC(=O)CSc2nc(=O)n(CCN(C)C)c3c2CCC3)cc1 the results were RXFP1 antag -85* and RXFP1 agonist 0%.
Screening CCC(=O)O[C@]1(C(=O)COC)[C@@H](C)C[C@H]2[C@@H]3CCC4=CC(=O)C=C[C@]4(C)C3(F)[C@@H](O)C[C@@]21C (stereo partly drawn) returned RXFP1 antag -31.
`Cc1ccc(/C=C/C(=O)N2CCN(S(=O)(=O)c3c(C)c(C)cc(C)c3C)CC2)o1` gave RXFP1 antag -28, KinaseGlo FLuc 2%, miR-21 FLuc -4%, PKM2 act 3.2µM*, GALK inhibitor 0% and RXFP1 agonist -1%.
`CC(C)C[C@H](N)c1nnc(S(=O)(=O)Cc2ccc(F)cc2)o1` gave RXFP1 antag -8, KinaseGlo FLuc -1%, miR-21 FLuc inconclusive, PKM2 act 10µM*, GALK inhibitor 8% and RXFP1 agonist 1%.
Screening CCCC/C=C/C(NC(=O)c1ccco1)c1ccccc1 (stereo not drawn) returned KinaseGlo FLuc -11% and PKM2 act 0%.
CCOC(=O)c1c(NC(=O)c2ccc(S(=O)(=O)N3CCC(C)CC3)cc2)sc2c1CCN(C)C2 was read as RXFP1 antag -63*, miR-21 FLuc 25% and RXFP1 agonist -36%.
CC1CCCCN1C(=O)COC(=O)C1CCN(S(=O)(=O)c2ccc(Cl)c(C(F)(F)F)c2)CC1 (stereo not drawn) was read as RXFP1 antag -65* and RXFP1 agonist 1%.
O=C(COC(=O)C1CCN(S(=O)(=O)c2ccc(Cl)c(C(F)(F)F)c2)CC1)NCc1ccco1 was read as RXFP1 antag -16 and RXFP1 agonist 0%.
Screening COCC1=C2c3ccccc3[C@@H]3CNC(=O)C3(C(=O)OC)C[C@@H]2n2c(=O)n(-c3ccccc3)c(=O)n2C1 (stereo partly drawn) returned KinaseGlo FLuc -2%.
Screening COC(=O)C=P(c1ccccc1)(c1ccccc1)c1ccccc1 returned KinaseGlo FLuc 1%.

A stretch from the list above, as a working copy:
Screening CCCC/C=C/C(NC(=O)c1ccco1)c1ccccc1 (stereo not drawn) returned KinaseGlo FLuc -11% and PKM2 act 0%.
CCOC(=O)c1c(NC(=O)c2ccc(S(=O)(=O)N3CCC(C)CC3)cc2)sc2c1CCN(C)C2 was read as RXFP1 antag -63*, miR-21 FLuc 25% and RXFP1 agonist -36%.
CC1CCCCN1C(=O)COC(=O)C1CCN(S(=O)(=O)c2ccc(Cl)c(C(F)(F)F)c2)CC1 (stereo not drawn) was read as RXFP1 antag -65* and RXFP1 agonist 1%.
O=C(COC(=O)C1CCN(S(=O)(=O)c2ccc(Cl)c(C(F)(F)F)c2)CC1)NCc1ccco1 was read as RXFP1 antag -16 and RXFP1 agonist 0%.

Other records follow.
Screening O=C(NN1C(=O)c2ccccc2NC1c1ccc([N+](=O)[O-])o1)c1ccc([N+](=O)[O-])cc1 (stereo not drawn) returned RXFP1 antag 23, KinaseGlo FLuc -4%, miR-21 FLuc 18%, PKM2 act -4%, GALK inhibitor 0% and RXFP1 agonist 2.8µM*.
COc1ccc2nc(Cl)c(C3CC(c4ccco4)=NN3C(=O)CCCC(=O)O)cc2c1 (stereo not drawn) was read as RXFP1 antag -1, miR-21 FLuc -9%, PKM2 act 22µM*, GALK inhibitor -2% and RXFP1 agonist inconclusive.
`CCOc1ccc2nc(Cl)c(C3CC(c4ccco4)=NN3S(C)(=O)=O)cc2c1` (stereo not drawn) gave RXFP1 antag -71*, miR-21 FLuc -16%, PKM2 act 12%, GALK inhibitor 5% and RXFP1 agonist 9%.
Screening CCc1cccc(NC(=O)C2CCCN(c3cnccn3)C2)c1 (stereo not drawn) returned RXFP1 antag 11, miR-21 FLuc -6%, PKM2 act -8%[0.46 µM], GALK inhibitor 7% and RXFP1 agonist 1%.
CCOC(=O)c1ccc(NC(=O)C2CCCN(c3cnccn3)C2)cc1 (stereo not drawn) was read as RXFP1 antag -61*!, miR-21 FLuc -34%, PKM2 act 8%[0.46 µM], GALK inhibitor 5% and RXFP1 agonist -2%.
For COc1cc(/C=C2\SC(=O)N(CCN)C2=O)ccc1OS(=O)(=O)c1cc(C)ccc1C the results were RXFP1 antag -72*, KinaseGlo FLuc -1%, miR-21 FLuc 1%, PKM2 act 10%, GALK inhibitor -2% and RXFP1 agonist -2%.
CN1C2CCC1CC(NC(=O)n1c(=O)[nH]c3ccccc31)C2 (stereo not drawn) was read as RXFP1 antag 12.
`Cc1ccc(C(C)C)c(OCC(O)CN2CCN(c3ccccc3F)CC2)c1` (stereo not drawn) gave RXFP1 antag -23, miR-21 FLuc 1% and RXFP1 agonist 0%.
For Cc1ccc(C)c(OCC(O)CN2CCC(Cc3ccccc3)CC2)c1 (stereo not drawn) the results were RXFP1 antag -70*, miR-21 FLuc 26%, GALK inhibitor -10% and RXFP1 agonist 2%.
Screening Cc1ccc(C(C)C)c(OCC(O)CN2CCc3ccccc3C2)c1 (stereo not drawn) returned RXFP1 antag -80*, miR-21 FLuc 23%, PKM2 act 1%, GALK inhibitor 2% and RXFP1 agonist 1%.
Screening O=[N+]([O-])c1ccc(NCCNS(=O)(=O)c2ccccc2)c(C(F)(F)F)c1 returned RXFP1 antag 3, KinaseGlo FLuc 1%, miR-21 FLuc 9%, PKM2 act 28µM*, GALK inhibitor -2% and RXFP1 agonist 1%.
Cc1nc(C2CCCCC2)c(-c2ccc(S(N)(=O)=O)c(F)c2)o1 was read as RXFP1 antag -17.
`COc1ccc2nc(N=Nc3ccc(N(C)C)cc3)sc2c1` gave RXFP1 antag 3, KinaseGlo FLuc 11µM*, miR-21 FLuc -21%, PKM2 act -21%, GALK inhibitor 8% and RXFP1 agonist 0%.
Screening COc1ccc2nc(/N=C\N(C)C)sc2c1 returned RXFP1 antag -4, KinaseGlo FLuc -8%, miR-21 FLuc -22%, PKM2 act 0%, GALK inhibitor -1% and RXFP1 agonist 4%.
`O=C1C(F)=CC(COC(c2ccccc2)(c2ccccc2)c2ccccc2)OC1n1cc(F)c(=O)[nH]c1=O` (stereo not drawn) gave RXFP1 antag -84*.
`COc1cccc(C(=O)OCC(=O)NC23CC4CC(CC(C4)C2)C3)c1` gave RXFP1 antag -6.
`CS(=O)(=O)c1ccc(C(=O)OCC(=O)NC23CC4CC(CC(C4)C2)C3)cc1[N+](=O)[O-]` gave RXFP1 antag -65*, KinaseGlo FLuc -4%, miR-21 FLuc 1%, PKM2 act 3%, GALK inhibitor -7% and RXFP1 agonist 0%.
Screening COc1ccc(-n2ccnc2SCC(=O)Nc2nnc(C)s2)cc1 returned RXFP1 antag 19, miR-21 FLuc 0% and RXFP1 agonist 0%.

Source: PubChem (National Center for Advancing Translational Sciences (NCATS))
